Data as given in patent US5622969A, “Method of treating leukotriene caused diseases with N-benzyl dihydroindole LTD4 antagonists” (Eli Lilly and Company, priority 1995, dated 1997).

Legend:
[1] = target: T1, leukotriene receptor (guinea pig trachea) (Cavia porcellus, UniProt Q2NNR5); test: Assay 1 - Guinea Pig Tracheae, leukotriene receptor antagonism (LTD4 contraction); conditions: antagonist added 45 minutes prior, read-out: GP trach (pKb) (converted)
T1 construct: Trachea were cut into ring segments and the epithelium removed; from tissue; host or cells: guinea pig tracheal rings, epithelium removed (male Hartley)
T1 sequence (Q2NNR5 1-340): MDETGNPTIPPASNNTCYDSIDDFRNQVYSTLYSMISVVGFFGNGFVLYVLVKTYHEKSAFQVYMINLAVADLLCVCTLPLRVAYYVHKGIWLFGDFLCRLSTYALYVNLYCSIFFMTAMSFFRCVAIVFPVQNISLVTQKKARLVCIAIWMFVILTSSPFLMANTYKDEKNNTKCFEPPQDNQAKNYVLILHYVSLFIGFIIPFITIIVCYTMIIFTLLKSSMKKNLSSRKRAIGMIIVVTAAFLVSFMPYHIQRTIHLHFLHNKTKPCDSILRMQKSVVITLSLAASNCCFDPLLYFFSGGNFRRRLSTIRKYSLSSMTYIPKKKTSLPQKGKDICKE
Method: Assay 1--Guinea Pig Tracheae
Leukotriene receptor antagonism was evaluated in isolated smooth muscles by the following procedure:
Male Hartley guinea pigs weighing 250-400 grams were asphyxiated with CO2 and exsanguinated. Trachea were excised and placed in Krebs'-bicarbonate solution of the following composition in mM/liter: NaCl, 118.2; NaHCO3, 24.8; KCl, 4.6; KH2 PO4, 1.2, MgSO4.7H2 O, 1.2; dextrose, 10.0; CaCl2.2H2 O, 2.5; 1-cysteine, 3.0, and indomethacin, 3 μM. Trachea were cut into ring segments and the epithelium removed by gently rubbing the luminal surface with a cotton swab. Tracheal rings were placed on supports constructed from two 1 inch 30 gauge disposable stainless steel hypodermic needles (Hooker, et al., 1977, Blood Vessels 14:1-11), and transferred to organ baths containing Krebs' solution maintained at 37° C. and aerated with 95% O2 and 5% CO2. Isometric measurements were made with a Grass FTO3C force-displacement transducer and recorded on a Grass polygraph as changes in grams of force. […]
(§1) The contractions of trachea and ilea to LTD4 in the presence of the drug was compared to responses in the absence of drug. KB values were calculated by the method of Furchgott (Ann. N.Y. Acad. Sci., 139:553, 1967) using the following equation: KB =[Antagonist]/Dose-Ratio-1. […]

[2] = target: T2, LTD4 receptor (guinea pig lung membrane) (Cavia porcellus, UniProt Q2NNR5); test: Assay 3 - Guinea Pig Lung Membrane [3H] LTD4 Radioligand Binding (GPLM binding); conditions: [3H] LTD4, guinea pig lung membrane, 30 min, 30° C., pH 6.5
T2 construct: guinea-pig lung membrane preparation; from tissue; host or cells: guinea pig lung membranes
T2 sequence (Q2NNR5 1-340): T1 sequence (Q2NNR5 1-340)
Method: The compounds of the invention also antagonise LTD4 radioligand binding in guinea pig lung membranes in the test described by Saussy et al., Mol. […] Assay 3--Guinea Pig Lung Membrane [^3 H] LTD4 Radioligand Binding: [^3 H] LTD4 was purchased from New England Nuclear (Boston, Mass.). All other chemicals were purchased from Sigma (St. Louis, Mo.). Incubations were performed in silanised glass tubes and contained 30 mg of guinea-pig lung membrane preparation (Saussy, et al., Mol. […] The binding reaction was terminated after 30 min. at 30° C. by the addition of 4 ml ice cold wash buffer (25 mM Tris --HCl, pH 7.5), followed immediately by vacuum filtration over Whatman (GF/C glass fibre filters, using a Brandel (Gaithersburg, Md.) 48 place harvester. The tubes and filter were washed 3×4 ml in cold wash buffer. Retained radioactivity was determined by liquid scintillation counting at 50% counting efficiency using Ready Protein Plus cocktail (Beckman, Fullerton, Calif.). Data were analyzed using linear regression analysis of log-logit plots of the values between 10% and 90% of control biding to calculate I[…] and slope factors (pseudo-Hill coefficients). IC50 values were corrected for radioligand concentrations (Cheng and Prusoff, Biochem. Pharmacol. 22:3099-3108, 1973) to calculate Ki values.

[3] = target: T3, LTD4 receptor (intestinal smooth muscle receptors, guinea pig ileum) (Cavia porcellus, UniProt Q2NNR5); test: Assay 2 - Guinea Pig Ileum, antagonism of LTD4 contraction; conditions: drug added 30 minutes prior, read-out: GP ileum (pKb) (converted)
T3 construct: Terminal ilea were removed from the animals; from tissue; host or cells: guinea pig terminal ileum segments
T3 sequence (Q2NNR5 1-340): T1 sequence (Q2NNR5 1-340)
Method: Assay 2--Guinea Pig Ileum:
Guinea pig ileum was used to determine the potency of novel LTD4 receptor antagonists on intestinal smooth muscle receptors. Terminal ilea were removed from the animals exsanguinated after CO2 asphyxiation and cut into smaller segments of approximately 2 to 3 cm. Tissues were placed in organ baths containing Krebs'bicarbonate solution prepared without indomethacin and 1-cysteine and aerated with 95% O2 and 5% CO2. After a 60 minute equilibration period, 3 submaximal contractions to histamine (3×10^-6 M) were obtained on all tissues. A cumulative concentration-response curve to LTD4 was then generated using the method of Van Rossum (Arch. Int. Pharmacodyn. Ther. 143:299, 1963). Agonist was washed from the baths and the tissues permitted to recover. After a second LTD4 concentration-response curve was produced, the ilea were washed once again and permitted to re-equilibrate. Experimental drug was added to the baths 30 minutes prior to a final LTD4 concentration-response curve.
as §1

- Kb [1]: 3.89 nM
- GPLM binding (pKi) [2]: 7.8
- Kb [3]: 5.5 nM
SMILES: c1cc(CCc2nnn[nH]2)c2c(c1)CCN2Cc1ccc(OCc2ccc3ccccc3n2)cc1 [Example 8, 5-[2-[1-[4-(Quinolin-2-ylmethoxy)benzyl]-2,3-dihydroindol-7-yl]-ethyl]-1H-tetrazole]
